Experimental data taken from US11371077B2, “High throughput cell-based screening for aptamers” (MeiraGTx UK II Limited, priority 2016, dated 2022).

Tested on: yxj-A6 riboswitch
Assay type: cell-based
Settings: Prestwick library compounds at 100 μM, HEK 293
Source text: Riboswitches were constructed as described in PCT/US2016/016234 (in particular Examples 3 to 6), incorporated herein by reference. A truncated human beta-globin intron sequence was synthesized and inserted in the coding sequence of a firefly luciferase gene. A mutant human DHFR exon 2 was synthesized and inserted in the middle of this truncated beta-globin intron sequence using Golden gate cloning strategy. Aptamers including xpt-G/A^1, ydhl-G/A^2, yxj^3, add^4, gdg6-G/A^5 (citations for the aptamers are incorporated herein by reference) were synthesized as oligonucleotides (“oligos”) with 4 nucleotide overhang at the 5′ end that are complementary to two different BsaI sites individually (IDT), annealed and ligated to BsaI-digested mDHFR-Luci-acceptor vector.
3.5×10^4 HEK 293 cells were plated in a 96-well flat bottom plate the day before transfection. Plasmid DNA (500 ng) was added to a tube or a 96-well U-bottom plate. Separately, TransIT-293 reagent (Mirus; 1.4 μL) was added to 50 μL Opti-mem I media (Life Technologies), and allowed to sit for 5 minutes at room temperature (RT). […]
24 hours after media change, plates were removed from the incubator, and equilibrated to RT for several minutes on a lab bench, then aspirated. […] Following a 5 min incubation at RT, luminescence was measured using a Tecan machine with 500 mSec read time. […]

Pirlindole mesylate
Fold Induction of luciferase activity: 3.2 fold
